Like-named read-outs stand apart in the source and are kept apart here.
Legend:
human liver microsomes = settings: 2ME2 50 μM
UGT1A7 = target: T1, UGT1A7 (Homo sapiens, UniProt Q9HAW7); experiment: Substrate glucuronidation by recombinant UGT1A7; settings: UGT1A7 Bacculosomes; 2ME2 50 μM
T1 sequence (Q9HAW7 26-530): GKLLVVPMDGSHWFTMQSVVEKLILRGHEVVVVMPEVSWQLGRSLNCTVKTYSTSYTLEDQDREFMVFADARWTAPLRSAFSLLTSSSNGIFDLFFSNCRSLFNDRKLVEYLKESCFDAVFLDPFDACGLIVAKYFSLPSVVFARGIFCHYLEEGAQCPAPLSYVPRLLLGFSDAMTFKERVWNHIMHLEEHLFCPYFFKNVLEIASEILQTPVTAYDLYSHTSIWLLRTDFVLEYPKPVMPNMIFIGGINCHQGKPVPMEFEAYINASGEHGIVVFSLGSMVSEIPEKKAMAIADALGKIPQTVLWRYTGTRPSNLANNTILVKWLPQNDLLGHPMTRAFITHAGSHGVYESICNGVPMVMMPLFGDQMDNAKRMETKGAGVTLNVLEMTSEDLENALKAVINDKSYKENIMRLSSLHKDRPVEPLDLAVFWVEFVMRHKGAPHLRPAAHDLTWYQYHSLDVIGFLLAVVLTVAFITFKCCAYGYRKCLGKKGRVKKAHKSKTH

UGT1A8 = target: T2, UGT1A8 (Homo sapiens, UniProt Q9HAW9); experiment: Substrate glucuronidation by recombinant UGT1A8; settings: 2ME2 50 μM
T2 sequence (Q9HAW9 26-530): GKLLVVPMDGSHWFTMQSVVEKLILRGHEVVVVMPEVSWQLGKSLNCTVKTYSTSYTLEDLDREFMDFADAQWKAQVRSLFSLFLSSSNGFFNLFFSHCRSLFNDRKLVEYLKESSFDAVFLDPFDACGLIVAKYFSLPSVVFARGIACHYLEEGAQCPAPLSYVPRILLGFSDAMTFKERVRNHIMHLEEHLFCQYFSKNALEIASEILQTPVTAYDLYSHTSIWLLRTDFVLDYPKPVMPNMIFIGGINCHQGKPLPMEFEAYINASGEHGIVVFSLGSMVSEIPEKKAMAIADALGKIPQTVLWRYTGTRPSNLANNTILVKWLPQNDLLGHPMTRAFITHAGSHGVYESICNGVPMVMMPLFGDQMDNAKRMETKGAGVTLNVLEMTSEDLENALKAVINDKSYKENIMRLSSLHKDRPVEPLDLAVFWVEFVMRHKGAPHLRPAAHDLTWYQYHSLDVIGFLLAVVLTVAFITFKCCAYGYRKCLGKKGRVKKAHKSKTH

UGT1A9 = target: T3, UGT1A9 (Homo sapiens, UniProt O60656); experiment: Substrate glucuronidation by recombinant UGT1A9
T3 sequence (O60656 26-530): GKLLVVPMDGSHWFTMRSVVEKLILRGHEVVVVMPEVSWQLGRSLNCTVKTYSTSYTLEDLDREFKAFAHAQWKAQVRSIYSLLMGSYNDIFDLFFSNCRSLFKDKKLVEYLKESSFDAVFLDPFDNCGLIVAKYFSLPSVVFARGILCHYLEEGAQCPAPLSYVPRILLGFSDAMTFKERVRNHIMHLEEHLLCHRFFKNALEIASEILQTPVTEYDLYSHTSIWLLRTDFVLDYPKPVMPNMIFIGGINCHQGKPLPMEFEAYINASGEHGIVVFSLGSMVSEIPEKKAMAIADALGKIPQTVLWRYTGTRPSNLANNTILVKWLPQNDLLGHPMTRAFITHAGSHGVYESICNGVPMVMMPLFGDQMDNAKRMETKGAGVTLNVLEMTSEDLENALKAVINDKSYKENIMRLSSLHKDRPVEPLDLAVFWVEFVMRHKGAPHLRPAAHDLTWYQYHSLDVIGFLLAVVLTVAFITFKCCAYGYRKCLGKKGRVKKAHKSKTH

UGT2B15 = target: T4, UGT2B15 (Homo sapiens, UniProt P54855); experiment: Substrate glucuronidation by recombinant UGT2B15; settings: UGT2B15 Supersomes; 2ME2 50 μM
T4 sequence (P54855 24-530): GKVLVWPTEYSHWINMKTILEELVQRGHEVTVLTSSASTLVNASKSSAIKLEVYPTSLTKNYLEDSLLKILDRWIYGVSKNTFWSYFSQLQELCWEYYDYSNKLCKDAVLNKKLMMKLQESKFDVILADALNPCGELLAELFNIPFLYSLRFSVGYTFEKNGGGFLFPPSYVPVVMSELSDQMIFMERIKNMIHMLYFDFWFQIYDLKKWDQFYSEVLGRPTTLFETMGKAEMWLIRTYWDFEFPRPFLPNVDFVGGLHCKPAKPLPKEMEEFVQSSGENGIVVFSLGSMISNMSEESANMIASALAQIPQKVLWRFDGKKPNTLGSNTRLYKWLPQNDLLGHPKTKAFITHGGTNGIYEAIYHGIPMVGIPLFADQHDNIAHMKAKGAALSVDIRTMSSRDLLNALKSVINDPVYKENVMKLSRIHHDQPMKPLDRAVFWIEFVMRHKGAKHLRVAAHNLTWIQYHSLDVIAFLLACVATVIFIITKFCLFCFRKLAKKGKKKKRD

COc1cc2c(cc1O)CC[C@@H]1[C@@H]2CC[C@]2(C)[C@@H](O)CC[C@@H]12 [2ME2, 2-Methoxyestradiol]
ratio MG1/MG2 (human liver microsomes; liver 032101): 3.6 | relative metabolite level MG1 (peak area relative to MG1 in human liver microsomes) (human liver microsomes; liver 032101): 100 ± 5 | relative metabolite level MG2 (human liver microsomes; liver 032101): 28 ± 1 | ratio MG1/MG2 (human liver microsomes; liver 062101): 2.1 | relative metabolite level MG1 (human liver microsomes; liver 062101): 53 ± 0 | relative metabolite level MG2 (human liver microsomes; liver 062101): 26 ± 0 | relative metabolite level MG1 (UGT1A7): 2.6 ± 0.1 | relative metabolite level MG2 (UGT1A7): <LOQ | rate of 2ME2 loss (UGT1A8; UGT1A8): 2377+57 pmol/min/mg | ratio MG1/MG2 (UGT1A8; UGT1A8 Supersomes): 117 | relative metabolite level MG1 (UGT1A8; UGT1A8 Supersomes): 161 ± 2 | relative metabolite level MG2 (UGT1A8; UGT1A8 Supersomes): 1.4 ± 0.0 | 2ME2 metabolic activity as % of the activity of UGT1A10 (UGT1A9; UGT1A9): less than 10% | ratio MG1/MG2 (UGT1A9; UGT1A9 Supersomes, 2ME2 50 μM): 7.5 | relative metabolite level MG1 (UGT1A9; UGT1A9 Supersomes, 2ME2 50 μM): 18 ± 0 | relative metabolite level MG2 (UGT1A9; UGT1A9 Supersomes, 2ME2 50 μM): 2.4 ± 0.0 | relative metabolite level MG1 (UGT2B15): <LOQ | relative metabolite level MG2 (UGT2B15): 1.9 ± 0.1

From patent US20030215462A1, “Use of UGT inhibitors to increase bioavailability” (priority 2001, published 2003)
